Measured values as given in US11174301B2 (Takeda Pharmaceutical Company Limited, priority 2017, dated 2021).

Chains of the proteins cited; added tags and fusions are not shown. Residues count along the entry.
UniProt P43220, 24-463: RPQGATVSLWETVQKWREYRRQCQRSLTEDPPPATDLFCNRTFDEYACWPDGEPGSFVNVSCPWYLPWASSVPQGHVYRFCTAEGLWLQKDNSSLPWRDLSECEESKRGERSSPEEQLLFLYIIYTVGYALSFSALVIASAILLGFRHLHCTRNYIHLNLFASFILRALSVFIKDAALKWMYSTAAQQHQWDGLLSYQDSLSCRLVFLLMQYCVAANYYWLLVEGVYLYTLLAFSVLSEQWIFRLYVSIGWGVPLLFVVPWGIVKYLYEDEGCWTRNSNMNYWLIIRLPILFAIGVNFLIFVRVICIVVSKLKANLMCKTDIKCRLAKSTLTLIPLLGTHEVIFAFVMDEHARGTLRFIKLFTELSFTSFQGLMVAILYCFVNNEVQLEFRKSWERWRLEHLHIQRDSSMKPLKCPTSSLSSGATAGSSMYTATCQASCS

Legend:
human GLP-1R = target: T1, human GLP-1R (Homo sapiens, UniProt P43220); test: Agonist activity on human GLP-1R, CRE-luciferase reporter assay with increase in intracellular cAMP as indicator; format: cell-based; conditions: hGLP-1R/CRE-luc/CHO-K1 cells, 4 hours incubation, 10 nM GLP-1 = 100%
T1 construct: expressed in transfected cells; host or cells: CHO-K1 (hGLP-1R/CRE-luc/CHO-K1 line)
From the text: (3) Construction of Reporter Plasmid
(5) Construction of Expression Plasmid of Human GLP-1R Gene
(6) Transfer of Human GLP-1R Gene and Reporter Plasmid to CHO-K1 Cell and Obtaining of Expressing Cell
The Cre-luc (Zeo) obtained in (3) and the plasmid hGLP-1/pIRESneo3 obtained in (5) were transferred to the CHO-K1 cell to obtain a transformant. Subsequently, the cell line inducing the luciferase expression, hGLP-1R/CRE-luc/CHO-K1 cell, was selected from the obtained transformant by adding GLP-1.
(§1) Steady-Glo (Promega) was added in amounts of 30 μL and shaken under light shielding. 20 Minutes later, luciferase activity was measured using a plate reader Envision (PerkinElmer).

human GIPR [1] = target: T2, human GIPR (Homo sapiens, UniProt P48546); test: Binding activity to human GIPR using [125I]-GIP (GIPR_VLP); conditions: [125I]GIP 100 pM, room temperature 2 hours
T2 construct: expressed in transfected cells; host or cells: CHO-K1 (CRE-LUC/CHO-K1 reporter cell; hGIPR/CRE-LUC/CHO-K1 line)
T2 sequence (P48546 22-466): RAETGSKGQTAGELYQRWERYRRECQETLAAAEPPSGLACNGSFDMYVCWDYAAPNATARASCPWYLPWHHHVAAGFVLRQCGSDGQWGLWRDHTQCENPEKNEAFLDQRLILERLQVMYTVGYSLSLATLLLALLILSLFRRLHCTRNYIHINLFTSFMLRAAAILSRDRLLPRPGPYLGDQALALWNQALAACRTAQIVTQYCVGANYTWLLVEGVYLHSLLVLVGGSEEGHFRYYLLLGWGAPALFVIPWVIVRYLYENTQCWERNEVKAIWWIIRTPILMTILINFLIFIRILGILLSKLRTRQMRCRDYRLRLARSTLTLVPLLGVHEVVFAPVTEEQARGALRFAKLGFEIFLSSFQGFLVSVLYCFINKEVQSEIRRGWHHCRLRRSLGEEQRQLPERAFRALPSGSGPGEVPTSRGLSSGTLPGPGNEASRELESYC
Procedure: The GF/C glass fiber filter 96-well plate in which VLP was trapped was dried at 42° C. overnight. Thereafter, MicroScint-O (PerkinElmer 6013611) was added to the GF/C glass fiber filter 96-well plate sealed using a backseal and the plate was sealed using a topseal.

human GIPR [2] = target: T2, human GIPR; test: Agonist activity on human GIPR, CRE-luciferase reporter assay with increase in intracellular cAMP as indicator; format: cell-based; conditions: hGIPR/CRE-LUC/CHO-K1 cells, 4 hours incubation, 10 nM GIP = 100%
Procedure: (2) Construction of Reporter Plasmid Expressing Cell
(4) Transfer of Human GIPR Gene to CRE-LUC/CHO-K1 Cell and Obtaining of Expressing Cell
Subsequently, the cell line inducing the luciferase expression, hGIPR/CRE-LUC/CHO-K1 cell, was selected from the obtained transformant by adding GIP.
as §1

Row | Substance | EC50 (human GLP-1R) [nM] | IC50 (human GIPR [1]) [nM] | EC50 (human GIPR [2]) [nM]
1 | Me-Tyr-Aib-Glu-Gly-Thr-Iva-Ile-Ser-Asp-Tyr-Ser-Ile-Aib-Lys(Hepda-GGGGG-)-Asp-Arg-Aib-His-Gln-Aib-Asn-Phe-Val-Asn-Trp-Iva-Leu-Ala-Gln-Arg-Pro-Ser-Ser-Gly-Ala-Pro-Pro-Pro-Ser-NH2 [Compound 508] | > 1000 | 9.1 | 0.018
2 | Me-Tyr-Aib-Glu-Gly-Thr-Iva-Ile-Ser-Asp-Tyr-Ser-Ile-Aib-Leu-Asp-Arg-Lys(Hepda-GGGGGG-)-His-Gln-Aib-Asn-Phe-Val-Asn-Trp-Iva-Leu-Ala-Gln-Arg-Pro-Ser-Ser-Gly-Ala-Pro-Pro-Pro-Ser-NH2 [Compound 504] | > 1000 | 9.1 | 0.0089
3 | Me-Tyr-Aib-Glu-Gly-Thr-Iva-Ile-Ser-Asp-Tyr-Ser-Ile-Aib-Lys(Hepda-GGGGGG-)-Asp-Arg-Aib-His-Gln-Aib-Asn-Phe-Val-Asn-Trp-Iva-Leu-Ala-Gln-Arg-Pro-Ser-Ser-Gly-Ala-Pro-Pro-Pro-Ser-NH2 [Compound 510] | > 1000 | 12 | 0.018
4 | H-Tyr-Aib-Glu-Gly-Thr-Val-Val-Ser-Phe-Tyr-Ser-Ile-Aib-Leu-Asp-Lys-Gln-Ala-Gln-Aib-Glu-Phe-Val-Lys-Trp-Leu-Leu-Lys-Gly-Gly-Pro-Ser-Ser-Gly-Ala-Pro-Pro-Pro-Ser-Lys-NH2 [Compound 7] | > 1000 | 5.9 | 0.021
5 | Me-Tyr-Aib-Glu-Gly-Thr-Iva-Ile-Ser-Asp-Tyr-Ser-Ile-Aib-Leu-Asp-Arg-Lys(Eda-GGGGG-)-His-Gln-Aib-Asn-Phe-Val-Asn-Trp-Iva-Leu-Ala-Gln-Arg-Pro-Ser-Ser-Gly-Ala-Pro-Pro-Pro-Ser-NH2 [Compound 493] | > 1000 | 25 | 0.046
6 | H-MeTyr-Aib-Glu-Gly-Thr-Iva-Ile-Ser-Asp-Tyr-Ser-Ile-Aib-Lys(Oda-GGGGG-)-Asp-Arg-Aib-Ala-Gln-Aib-Asn-Phe-Val-Asn-Trp-Iva-Leu-Ala-Gln-Arg-Pro-Ser-Ser-Gly-Ala-Pro-Pro-Pro-Ser-OH [Compound 441] | > 1000 | 3.8 | 0.031
7 | Me-Tyr-Aib-Glu-Gly-Thr-Iva-Ile-Ser-Asp-Tyr-Ser-Ile-Aib-Lys(Eda-GGGGGG-)-Asp-Arg-Aib-Ala-Gln-Aib-Asn-Phe-Val-Asn-Trp-Iva-Leu-Ala-Gln-Arg-Pro-Ser-Ser-Gly-Ala-Pro-Pro-Pro-Ser-Arg-NH2 [Compound 520] | > 1000 | 18 | 0.056
8 | Me-Tyr-Aib-Glu-Gly-Thr-Iva-Ile-Ser-Asp-Tyr-Ser-Ile-Aib-Lys(Oda-GGGGGG-)-Asp-Arg-Aib-His-Gln-Aib-Asn-Phe-Val-Asn-Trp-Iva-Leu-Ala-Gln-Arg-Pro-Ser-Ser-Gly-Ala-Pro-Pro-Pro-Ser-NH2 [Compound 484] | > 1000 | 10 | 0.026
9 | H-MeTyr-Aib-Glu-Gly-Thr-Iva-Ile-Ser-Asp-Tyr-Ser-Ile-Aib-Lys(Oda-GGGGG-)-Asp-Arg-Aib-Ala-Gln-Aib-Asn-Phe-Val-Asn-Trp-Iva-Leu-Ala-Gln-Arg-NH2 [Compound 415] | > 1000 | 4.3 | 0.024
10 | H-Tyr-Aib-Glu-Gly-Thr-Val-Lys-Ser-Asp-Tyr-Ser-Ile-Aib-Leu-Asp-Lys-Gln-Ala-Gln-Aib-Glu-Phe-Val-Lys-Trp-Leu-Leu-Lys-Gly-Gly-Pro-Ser-Ser-Gly-Ala-Pro-Pro-Pro-Ser-Lys-NH2 [Compound 8] | > 1000 | 17 | 0.079
11 | Me-Tyr-Aib-Glu-Gly-Thr-Iva-Ile-Ser-Asp-Tyr-Ser-Ile-Aib-Lys(Heda-GGGGGG-)-Asp-Arg-Aib-His-Gln-Aib-Asn-Phe-Val-Asn-Trp-Iva-Leu-Ala-Gln-Arg-Pro-Ser-Ser-Gly-Ala-Pro-Pro-Pro-Ser-NH2 [Compound 509] | > 1000 | 7.3 | 0.011
